Literature values in paper PMC6222470.

Target: histone H4 H4K5acK8ac peptide (Homo sapiens) (UniProt P62805)

- Kd: 13 µM
Substance: BRDT BD1 (from UniProt Q58F21)
